# From patent publication US20170372030A9 (published 2017)
# Protein sequences, listed by entry. Tags and fused reporters are not part of them.
# UniProt P14416, whole entry: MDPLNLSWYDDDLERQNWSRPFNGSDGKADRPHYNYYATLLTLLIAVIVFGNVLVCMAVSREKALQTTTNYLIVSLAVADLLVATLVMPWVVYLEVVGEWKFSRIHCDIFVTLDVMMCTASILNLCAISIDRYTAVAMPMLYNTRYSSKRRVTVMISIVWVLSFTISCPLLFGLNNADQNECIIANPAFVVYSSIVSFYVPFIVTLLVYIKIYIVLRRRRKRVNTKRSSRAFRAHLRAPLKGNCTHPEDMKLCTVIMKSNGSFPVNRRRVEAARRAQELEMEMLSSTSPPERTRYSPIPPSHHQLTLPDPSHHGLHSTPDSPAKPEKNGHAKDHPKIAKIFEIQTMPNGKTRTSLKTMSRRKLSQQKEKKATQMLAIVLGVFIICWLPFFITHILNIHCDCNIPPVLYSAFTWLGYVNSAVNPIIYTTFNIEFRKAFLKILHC
# Like-named read-outs stand apart in the source and are kept apart here.
# Key:
# D2-R [1] = target: T1, D2-R (Homo sapiens, UniProt P14416); details: cited from earlier work
# D2-R [2] = target: T1, D2-R; test: Drug and tracer binding affinity and on/off rates at the D2-R (Table 1); details: read-out: Koff (sec^−1)
koff (D2-R [2]),Compound,Kd (D2-R [1]; at the D2-R),"Kd (D2-R [1]; read-out: affinity of tracer for the D2-R, tracer)"
,CCN1CCC[C@H]1CNC(=O)c1c(O)c(Cl)cc(Cl)c1OC [Raclopride],90 nM,95 nM
0.000447 s⁻¹,Cc1nc2n(c(=O)c1CCN1CCC(c3noc4cc(F)ccc34)CC1)CCCC2O (stereo not drawn) [Paliperidone],,
